This is an account of results in patent US8853392B2, “Benzamide mGluR5 positive allosteric modulators and methods of making and using same” (Vanderbilt University, priority 2007, dated 2014).

By UniProt entry, the sequences of proteins in these tests, tags left out. Residues count along the entry.
UniProt P31424, 21-1203 limits assumed: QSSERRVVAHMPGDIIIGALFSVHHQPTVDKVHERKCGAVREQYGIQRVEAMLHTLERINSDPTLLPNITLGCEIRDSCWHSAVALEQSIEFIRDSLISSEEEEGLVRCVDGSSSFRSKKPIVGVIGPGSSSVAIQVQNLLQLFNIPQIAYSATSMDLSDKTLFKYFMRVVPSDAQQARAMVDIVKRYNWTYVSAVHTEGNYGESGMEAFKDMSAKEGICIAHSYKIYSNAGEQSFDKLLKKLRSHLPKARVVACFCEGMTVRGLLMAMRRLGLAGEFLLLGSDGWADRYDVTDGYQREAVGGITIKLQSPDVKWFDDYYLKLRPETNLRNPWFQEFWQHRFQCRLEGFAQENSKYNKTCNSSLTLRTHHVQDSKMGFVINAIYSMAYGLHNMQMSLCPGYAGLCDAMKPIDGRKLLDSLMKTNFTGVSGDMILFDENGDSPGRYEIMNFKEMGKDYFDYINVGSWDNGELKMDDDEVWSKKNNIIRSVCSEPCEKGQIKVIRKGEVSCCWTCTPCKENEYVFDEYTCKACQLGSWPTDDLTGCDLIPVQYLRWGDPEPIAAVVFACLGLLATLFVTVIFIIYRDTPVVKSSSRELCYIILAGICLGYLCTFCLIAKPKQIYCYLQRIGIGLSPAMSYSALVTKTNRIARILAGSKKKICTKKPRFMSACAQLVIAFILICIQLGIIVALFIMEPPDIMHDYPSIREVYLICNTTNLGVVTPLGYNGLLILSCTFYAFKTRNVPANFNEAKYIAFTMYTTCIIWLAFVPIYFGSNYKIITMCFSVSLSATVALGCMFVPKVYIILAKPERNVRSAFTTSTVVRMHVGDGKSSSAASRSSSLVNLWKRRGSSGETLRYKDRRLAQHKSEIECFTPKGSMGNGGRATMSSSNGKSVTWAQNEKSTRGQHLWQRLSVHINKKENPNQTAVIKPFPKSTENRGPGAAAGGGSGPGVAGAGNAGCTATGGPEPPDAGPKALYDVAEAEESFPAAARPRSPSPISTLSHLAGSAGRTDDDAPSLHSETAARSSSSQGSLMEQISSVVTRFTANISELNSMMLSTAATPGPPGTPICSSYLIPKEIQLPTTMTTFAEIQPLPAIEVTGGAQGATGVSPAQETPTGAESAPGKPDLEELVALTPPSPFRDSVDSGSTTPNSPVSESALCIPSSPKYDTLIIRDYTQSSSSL

By EC50 is commonly meant the midpoint of the concentration-response curve.

The target in the assay is rat mGluR5 (Rattus norvegicus, UniProt P31424). In words: potentiation of mGluR5 response to glutamate, Ca2+ fluorescence (FDSS) in HEK cells transfected with rat mGluR5. Type of assay: cell-based. Conditions: Table 1, EC50 for potentiating the mGluR5 receptor; unit inferred. As for the experimental part:
Human embryonic kidney (HEK) cells transfected with rat mGluR5 were plated in clear bottom assay plates for assay in a Functional Drug Screening System (FDSS). The cells were loaded with a Ca^2+-sensitive fluorescent dye (e.g., Fluo-4), and the plates were washed and placed in the FDSS instrument. After establishment of a fluorescence baseline for twelve seconds, the compounds of the present invention were added to the cells, and the response in cells was measured. Five minutes later, an mGluR5 agonist (e.g., glutamate, 3,5-dihydroxyphenylglycine, or quisqualate) was added to the cells, and the response of the cells was measured. […]
The above described assay operated in two modes. […] If a compound acted as a potentiator, an EC50 value for potentiation and a maximum extent of potentiation by the compound at this concentration of agonist was determined by non-linear curve fitting. In the second mode, several fixed concentrations of the present compounds were added to various wells on a plate, followed by a range of concentrations of agonist for each concentration of present compound; the EC50 values for the agonist at each concentration of compound were determined by non-linear curve fitting. […]

Turning to `O=C(c1ccc(C#Cc2ccccc2)cc1)N1CCC(O)(c2ccc(Br)cc2)CC1`, the EC50 was 2460 nM.

Consider `CC(C)(C)CCNC(=O)c1ccc(-c2nc(-c3ccc(F)cc3)no2)cc1`, for which the EC50 worked out at 423 nM.
